Test results: PubChem BioAssay (NCATS)
This is a selection; strong and weak results do not stand in their true shares. Records with an inconclusive call do not appear. For some assays here: Measured potencies and affinities stand elsewhere. Activity calls are given as the source filed them. Unless noted, calls follow the shape of the dose curve; as a rule, active = well fitted curve in the direction sought with a large enough effect; inconclusive = small, poorly fitted or top-dose-only effect, or another doubt; inactive = no such curve, though single readings can be large; an effect the other way counts as inactive or inconclusive.

Amino acid sequences for entries named in this document (tags omitted). Residues count along the entry.
UniProt Q03181, whole entry: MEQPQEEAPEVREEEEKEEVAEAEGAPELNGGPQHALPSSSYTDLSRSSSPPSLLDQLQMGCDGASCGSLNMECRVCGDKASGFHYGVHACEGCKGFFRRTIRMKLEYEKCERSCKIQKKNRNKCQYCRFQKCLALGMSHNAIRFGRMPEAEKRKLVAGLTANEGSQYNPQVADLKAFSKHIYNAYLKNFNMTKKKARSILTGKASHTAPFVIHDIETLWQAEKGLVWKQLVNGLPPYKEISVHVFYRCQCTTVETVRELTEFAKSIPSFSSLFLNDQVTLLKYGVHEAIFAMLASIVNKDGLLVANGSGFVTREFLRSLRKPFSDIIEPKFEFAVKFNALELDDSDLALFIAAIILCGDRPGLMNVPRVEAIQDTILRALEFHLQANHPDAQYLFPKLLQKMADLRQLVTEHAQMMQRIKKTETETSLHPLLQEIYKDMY
UniProt P11712, whole entry: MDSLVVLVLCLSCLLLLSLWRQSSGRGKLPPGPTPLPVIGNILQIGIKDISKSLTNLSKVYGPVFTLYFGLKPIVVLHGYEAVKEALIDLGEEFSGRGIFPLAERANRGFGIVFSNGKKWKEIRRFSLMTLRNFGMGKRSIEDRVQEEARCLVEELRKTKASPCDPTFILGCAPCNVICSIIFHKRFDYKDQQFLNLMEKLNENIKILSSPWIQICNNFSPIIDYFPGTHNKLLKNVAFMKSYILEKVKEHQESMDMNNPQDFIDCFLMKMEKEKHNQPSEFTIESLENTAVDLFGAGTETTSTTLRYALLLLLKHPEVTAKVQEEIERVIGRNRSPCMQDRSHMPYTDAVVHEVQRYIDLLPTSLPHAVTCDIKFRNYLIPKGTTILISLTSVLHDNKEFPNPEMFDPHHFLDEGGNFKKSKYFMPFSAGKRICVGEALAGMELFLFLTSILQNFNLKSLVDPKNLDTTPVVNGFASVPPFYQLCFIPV
UniProt P10828, whole entry: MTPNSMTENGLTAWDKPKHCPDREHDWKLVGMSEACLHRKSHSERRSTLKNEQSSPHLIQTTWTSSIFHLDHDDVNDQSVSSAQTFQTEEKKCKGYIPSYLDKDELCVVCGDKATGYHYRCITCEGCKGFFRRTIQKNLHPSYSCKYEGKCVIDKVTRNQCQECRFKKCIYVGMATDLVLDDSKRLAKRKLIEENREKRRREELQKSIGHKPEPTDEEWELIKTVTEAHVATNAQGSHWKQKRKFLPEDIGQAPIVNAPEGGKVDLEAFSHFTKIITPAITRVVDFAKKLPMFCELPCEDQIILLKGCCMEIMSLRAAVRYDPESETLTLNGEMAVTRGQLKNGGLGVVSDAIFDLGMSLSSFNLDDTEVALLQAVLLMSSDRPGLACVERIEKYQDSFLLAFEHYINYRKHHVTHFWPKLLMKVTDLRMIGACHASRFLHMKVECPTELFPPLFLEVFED
UniProt Q07869, whole entry: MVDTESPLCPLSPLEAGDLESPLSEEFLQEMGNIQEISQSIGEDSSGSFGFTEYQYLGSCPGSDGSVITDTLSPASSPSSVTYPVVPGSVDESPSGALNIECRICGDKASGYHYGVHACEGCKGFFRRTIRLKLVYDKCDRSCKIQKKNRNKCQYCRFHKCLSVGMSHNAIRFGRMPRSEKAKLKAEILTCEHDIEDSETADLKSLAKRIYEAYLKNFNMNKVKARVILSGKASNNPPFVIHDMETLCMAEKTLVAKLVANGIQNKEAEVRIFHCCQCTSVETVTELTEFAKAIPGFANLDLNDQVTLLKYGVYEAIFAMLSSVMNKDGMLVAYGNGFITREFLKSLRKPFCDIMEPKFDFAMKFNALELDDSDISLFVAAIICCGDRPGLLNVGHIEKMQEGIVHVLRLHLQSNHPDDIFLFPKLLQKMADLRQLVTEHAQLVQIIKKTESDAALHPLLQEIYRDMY
UniProt Q12809, 1-548 isoform 6: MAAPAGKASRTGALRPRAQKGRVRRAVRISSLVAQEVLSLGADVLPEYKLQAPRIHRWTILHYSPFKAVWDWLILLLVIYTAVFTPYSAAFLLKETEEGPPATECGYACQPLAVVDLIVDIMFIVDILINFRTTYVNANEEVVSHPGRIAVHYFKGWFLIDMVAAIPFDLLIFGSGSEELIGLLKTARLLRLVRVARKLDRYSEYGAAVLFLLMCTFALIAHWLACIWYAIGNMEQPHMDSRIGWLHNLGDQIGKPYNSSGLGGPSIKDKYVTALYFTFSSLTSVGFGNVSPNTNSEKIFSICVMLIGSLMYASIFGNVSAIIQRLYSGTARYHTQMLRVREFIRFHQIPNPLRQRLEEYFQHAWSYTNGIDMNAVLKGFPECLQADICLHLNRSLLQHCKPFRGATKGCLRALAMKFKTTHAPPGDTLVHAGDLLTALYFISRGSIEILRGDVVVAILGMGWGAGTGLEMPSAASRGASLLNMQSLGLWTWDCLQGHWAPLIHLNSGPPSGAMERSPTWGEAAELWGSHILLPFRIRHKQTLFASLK

Tests used:
[1] = system: WaGa; assay: qHTS assay to identify novel small-molecules to repurpose for Merkel cell carcinoma treatment (AID 1296009); settings: MCC and control cell lines, CellTiter-Glo viability, 72 h; at 46 µM (top of the series); also: % is scaled to controls: 0 for no effect and ±100 for the full control effect; nearly all actives have a fitted effect of over 60% in size
Method in brief: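 Luminescence from CellTiter-Glo, read 10 min after addition at room temperature, reported viability following a 72 hr, 37 degree celsius treatment with NPC or MIPE compounds in titration; values normalized to plate controls.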

[2] = target: Peroxisome proliferator-activated receptor delta (Homo sapiens) (UniProt Q03181); assay: qHTS assay for small molecule agonists of peroxisome proliferator-activated receptor delta signaling (AID 588534; calls by dose curve;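 also: 0% = DMSO basal wells and 100% = positive control agonist at 10 µM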); settings: HEK293T PPARdelta-UAS-bla, beta-lactamase ratio, 18 h; at 76.7 µM (top of the series)
[3] = P-glycoprotein substrates identified in KB-8-5-11 adenocarcinoma cell line, qHTS therapeutic library screen (AID 1346987); settings: KB-8-5-11 (P-gp overexpressing) viability, CellTiter-Glo, 72 h; also: potency is read from the fitted curve at half-maximal effect; nearly all actives have a fitted effect of over 65% in size
Method in brief: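 Human cervical adenocarcinoma KB-8-5-11 cells, selected in colchicine to over-express P-gp and assayed without it, were exposed for 72 h to titrated compounds. An ATP-based luminescent viability signal gave AC50.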

[4] = qHTS of pediatric cancer cell lines to identify multiple opportunities for drug repurposing: Primary screen for BT-37 cells (AID 1347094); settings: BT-37 viability, CellTiter-Glo luminescence, 48 h; also: potency is read from the fitted curve at half-maximal effect
Method in brief: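 CRCs from 8- or 11-point titrations (lowest final 0.59 nM NPC, 0.78 nM MIPE). Cell viability: CellTiter-Glo after 48 h incubation, 15 min room-temperature development, luminescence imaging.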

[5] = qHTS of pediatric cancer cell lines to identify multiple opportunities for drug repurposing: Primary screen for NB-EBc1 cells (AID 1347095); settings: NB-EBc1 neuroblastoma viability, CellTiter-Glo luminescence, 48 h; also: potency is read from the fitted curve at half-maximal effect
[6] = target: Cytochrome P450 2C9 (Homo sapiens) (UniProt P11712); assay: Cytochrome P450 family 2 subfamily C member 9 (CYP2C9) small molecule antagonists: luciferase qHTS assay (AID 1645842; active = well fitted curve in the direction sought with a large enough effect in the repeat runs; an effect the other way counts as inactive or inconclusive; also: potency is read from the fitted curve at half-maximal effect; nearly all actives have a fitted effect of over 55% in size); settings: P450-Glo CYP2C9 enzyme assay, luciferin luminescence
Method in brief: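 P450-Glo CYP2C9 system: proluciferin substrate with enzyme in mix containing 0.4% BSA, 10 min at room temperature, then NADPH regeneration solution added and incubated 1 h at 37C. Detection reagent stopped reaction; luminescence read after 20 min as RLU.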

[7] = qHTS assay for small molecule agonists of the antioxidant response element (ARE) signaling pathway measured by Nrf2-dependant transcriptional activity - cell viability counter screen (AID 720653; active = well fitted curve in the direction sought with a large enough effect in the repeat runs; an effect the other way counts as inactive or inconclusive; also: potency is read from the fitted curve at half-maximal effect); settings: ARE-bla HepG2 viability, CellTiter-Glo ATP luminescence, 16 h
Method in brief: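 ARE-bla HepG2 cells (2,000/well) rested 5 hrs at 37C/5% CO2, then exposed to compounds in DMSO for 16 hrs. Viability was read in the same wells as intracellular ATP by luminescence, 30 min at room temperature after reagent addition.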

[8] = Cell Viability - SH-SY5Y (AID 544); settings: SH-SY5Y neuroblastoma cell viability; at 92.2 µM (top of the series); also: nearly all actives have a fitted effect of over 55% in size
Method in brief: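 Quantitative HTS in SH-SY5Y neuroblastoma cells, 40 hr treatment at 37 °C, ATP content by luciferase luminescence; AC50 from Hill fits.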

[9] = Validation screen for small molecules that induce DNA re-replication in SW480 colon adenocarcinoma cells (AID 504364); settings: DNA re-replication phenotype (high-content imaging); at 46.1 µM (top of the series); also: 0% is about no effect
Method in brief: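 Hoechst-stained SW480 nuclei, imaged at 405 nm excitation after 48 hr compound exposure, were counted for elevated DNA content as the re-replication signal.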

[10] = Cellular Toxicity (caspase-3) Hek293 (AID 664); settings: HEK293 caspase-3 activation, DMSO = 0%, 100 µM tamoxifen = 100%; at 92.2 µM (top of the series);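 also: cells exposed to compound for 16 h at 37 °C before readout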
Method in brief: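 Apoptosis readout: Caspase-Glo 3/7 signal in human HEK293 cells following 16-hour compound incubation. Responses scaled between DMSO baseline and 100 uM tamoxifen.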

[11] = MultiTox-Fluor Cytotoxicity Assay - LYMP1-002 - Live Cells (AID 955); settings: LYMP1-002 lymphoblastoid live-cell protease fluorescence viability; at 46.1 µM (top of the series); also: % is scaled to controls: 0 for no effect and ±100 for the full control effect
Method in brief: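 In this qHTS viability format, lymphoblastoid cells (LYMP1-002, human) received compound for 16 hr at 37 C. Fluorogenic GF-AFC cleavage by viable cells was detected at 405/510 nm after 1 h at room temperature.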

[12] = target: Retinoic acid receptor RXR-alpha (Homo sapiens) (UniProt P19793); assay: qHTS assay for small molecule agonists of retinoid X receptor alpha signaling (AID 588544; calls by dose curve;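 also: 0% = DMSO basal wells and 100% = reference agonist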); settings: HEK293T RXRa-UAS-bla, beta-lactamase reporter, 18 h; at 76.7 µM (top of the series)
[13] = target: Thyroid hormone receptor beta (Homo sapiens) (UniProt P10828); assay: qHTS assay for small molecule antagonists of thyroid hormone receptor beta signaling (AID 588547; active = well fitted inhibition curve with a large enough effect in the signal ratio, with a control signal flat, not every such curve was filed as active; the % refers to the signal ratio); settings: TR-UAS-bla HEK293, beta-lactamase ratio, antagonist mode, 18 h; stronger effect = lower value
Method in brief: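 TR-UAS-bla GripTite HEK293 cells in 2% charcoal/dextran FBS medium were preincubated 4 h at 37 C, given compound (0.59 nM to 92 uM) plus 0.4 nM T3 (final) for 18 h, then CCF4 for 2 h at RT; Hill fit gave IC50.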

[14] = Cell Viability - Renal Proximal Tubule (AID 545); settings: renal proximal tubule cells viability, primary cells of rat origin; at 91.7 µM (top of the series); also: nearly all actives have a fitted effect of over 40% in size
Method in brief: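 In this qHTS format, normal rat kidney-derived proximal tubule cells in complete culture medium receive compound titrations, then sit 40 hours at 37 °C before luciferase-based ATP quantitation; potency is reported as AC50 from concentration-response curves.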

[15] = target: Peroxisome proliferator-activated receptor alpha (Homo sapiens) (UniProt Q07869); assay: qHTS assay for small molecule agonists of the peroxisome proliferator-activated receptor alpha (PPARalpha) signaling pathway (AID 651778); settings: PathHunter PPARalpha complementation, chemiluminescence, 6 h; stronger effect = higher value; also: % of control where 0% means no effect
Method in brief: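 Cells plated at 2,000/well and held overnight at 37 C, 5% CO2, then compound added by pin tool for 6 hr; after PathHunter detection reagent and 60 min at room temperature, chemiluminescence from enzyme complementation was read.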

[16] = target: Peroxisome proliferator-activated receptor delta (Homo sapiens) (UniProt Q03181); assay: qHTS assay for small molecule antagonists of peroxisome proliferator-activated receptor delta signaling (AID 588535; active = well fitted inhibition curve with a large enough effect in the signal ratio, with a control signal flat, not every such curve was filed as active; the % refers to the signal ratio); settings: HEK293T PPARd-UAS-bla, beta-lactamase FRET ratio, 18 h; at 76.7 µM (top of the series)
[17] = Cell Viability - LYMP2-023 (AID 975); settings: LYMP2-023 lymphoblastoid cell viability; at 92.2 µM (top of the series);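 also: cellular ATP measured by luciferase luminescence as viability proxy; cells exposed to compound for 24 hours at 37 °C; plate controls were DMSO only for no effect and 92 µM tetraoctylammonium bromide control for full effect; nearly all actives have a fitted effect of over 55% in size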
Method in brief: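 In this qHTS, ATP-based luciferase luminescence (CellTiter-Glo) is quantified in human lymphoblastoid cells after 24 hr compound treatment at 37 C; tetraoctylammonium bromide serves as positive control. Concentration-response curves are Hill-fitted to give AC50.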

[18] = target: Voltage-gated inwardly rectifying potassium channel KCNH2 (Homo sapiens) (UniProt Q12809); assay: qHTS Assay for Small Molecule Inhibitors of the Human hERG Channel Activity (AID 588834); settings: U2OS BacMam hERG, FluxOR thallium flux fluorescence; at 46.1 µM (top of the series);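 also: U2OS cells transduced with hERG by BacMam; top concentration of the series differs between compounds; % is scaled to controls: 0 for no effect and ±100 for the full control effect; lower thallium flux fluorescence means stronger hERG block; nearly all actives have a fitted effect of over 50% in size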
[19] = S16 Schwann cell PMP22 intronic element firefly luciferase assay (AID 624032); settings: S16 rat Schwann cells, PMP22 element FLuc, 24 h; at 57.5 µM (top of the series);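 also: plate controls were DMSO for no effect and PTC124 positive control mean for full effect; nearly all actives have a fitted effect of over 30% in size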

OCCSCCO
activity change, negative = cytotoxicity [1]: inactive: 11.9%

Cc1cc([N+](=O)[O-])cc([N+](=O)[O-])c1O
activation [2]: inactive: -14.9%
Potency [3]: active: 35.5 µM
Potency [4]: active: 35.5 µM
Potency [5]: active: 21.7 µM
Potency [6]: active: 32.6 µM

O=C1C2CC=CCC2C(=O)N1SC(Cl)(Cl)C(Cl)Cl (stereo not given)
Potency [7]: active: 14.1 µM

CCOP(=O)(CC)OCC
viability change, negative = cytotoxic [8]: inactive: -2.78%

CN(C(=O)Cc1ccc(Cl)c(Cl)c1)[C@@H]1CC[C@]2(CCCO2)C[C@H]1N1CCCC1
activity (re-replication induction) [9]: inactive: 15.9%

NC(=O)Nc1ccc([As](=O)(O)O)cc1
caspase-3 activation [10]: inactive: -1.17%
viability change, negative = cytotoxic [11]: inactive: 1.41%
activation [12]: inactive: 8.65%
inhibition [13]: inactive: 1.41%

Cc1ccc([N+](=O)[O-])c([N+](=O)[O-])c1
activity change, negative = cytotoxicity [14]: inactive: -1.47%
max response [15]: inactive: -1.47%

Cc1c([N+](=O)[O-])cccc1[N+](=O)[O-]
activity change, negative = inhibition [16]: inactive: 7.63%

[NH4+].[O-][Cl+3]([O-])([O-])[O-]
activity change, negative = cytotoxicity [17]: inactive: 1.76%
activation [2]: inactive: 1.74%

O=[N+]([O-])[O-].[NH4+]
activity change, negative = inhibition [18]: inactive: -14.1%
activity change, negative = inhibition [19]: inactive: 18.2%
